Laboratory results: the NIST ThermoML archive (doi:10.1016/j.jct.2016.01.017)
± gives the expanded uncertainty stated by the source.

Assay: activity coefficient (dimensionless); of the first substance listed, at infinite dilution; xn = mol fraction of the nth substance listed
Conditions: 100 kPa, Liquid, Chromatography, x1 = 0

For `CCCCOCCCC` [dibutyl ether] + CCCC[n+]1ccc(C#N)cc1.O=S(=O)([N-]S(=O)(=O)C(F)(F)F)C(F)(F)F, the activity coefficient (308.15 K) was 19.3 ± 1.7, the activity coefficient (318.15 K) was 18.6 ± 1.6 and the activity coefficient (328.15 K) was 18 ± 1.6. For the same compound, the activity coefficient (338.15 K) was 17.4 ± 1.5, the activity coefficient (348.15 K) was 16.8 ± 1.5 and the activity coefficient (358.15 K) was 16.3 ± 1.4. It also gave an activity coefficient (368.15 K) of 15.9 ± 1.4.
